{"source": "ChEMBL document CHEMBL3400148", "about": "“Structure-based discovery of small molecule hepsin and HGFA protease inhibitors: Evaluation of potency and selectivity derived from distinct binding pockets” (Bioorg Med Chem, 2015)", "molecular_target": "T1, Suppressor of tumorigenicity 14 protein (Homo sapiens, UniProt Q9Y5Y6)", "T1 sequence (Q9Y5Y6 whole entry)": "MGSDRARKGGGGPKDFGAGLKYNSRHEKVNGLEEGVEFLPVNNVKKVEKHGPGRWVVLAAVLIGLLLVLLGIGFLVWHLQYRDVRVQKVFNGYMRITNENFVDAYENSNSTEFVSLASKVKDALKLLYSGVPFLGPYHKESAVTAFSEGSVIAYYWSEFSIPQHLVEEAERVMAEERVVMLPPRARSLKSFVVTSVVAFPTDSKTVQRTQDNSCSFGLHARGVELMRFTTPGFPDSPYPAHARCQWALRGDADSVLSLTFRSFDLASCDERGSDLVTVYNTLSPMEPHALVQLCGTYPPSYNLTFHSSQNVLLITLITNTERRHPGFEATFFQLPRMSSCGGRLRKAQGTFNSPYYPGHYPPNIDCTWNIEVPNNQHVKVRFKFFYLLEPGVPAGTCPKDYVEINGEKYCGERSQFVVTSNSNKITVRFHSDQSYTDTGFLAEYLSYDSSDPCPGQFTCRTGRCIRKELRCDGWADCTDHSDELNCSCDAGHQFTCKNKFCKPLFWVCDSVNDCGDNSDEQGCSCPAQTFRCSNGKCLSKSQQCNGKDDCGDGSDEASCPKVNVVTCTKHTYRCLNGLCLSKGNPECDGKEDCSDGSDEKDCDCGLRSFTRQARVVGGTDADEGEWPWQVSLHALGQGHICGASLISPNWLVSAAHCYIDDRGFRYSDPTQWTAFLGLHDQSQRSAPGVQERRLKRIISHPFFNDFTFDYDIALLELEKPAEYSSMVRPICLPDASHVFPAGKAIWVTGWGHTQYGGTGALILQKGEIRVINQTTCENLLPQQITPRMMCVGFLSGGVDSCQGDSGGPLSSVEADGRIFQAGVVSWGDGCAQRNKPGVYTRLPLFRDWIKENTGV", "experiment": "Inhibition of matripase (unknown origin) using Boc-QAR-AMC as substrate incubated for 30 mins prior to substrate addition by fluorescence assay", "data": [{"smiles": "Cc1ccc(S(=O)(=O)N[C@@H](Cc2cccc(C(=N)N)c2)C(=O)N2CCN(C(=O)OCc3ccccc3)CC2)cc1", "values": [{"measurement": "Ki", "result": 620, "unit": "nM"}]}]}
